Data from PubChem BioAssay AID485313 (National Center for Advancing Translational Sciences (NCATS), 2010).
The entries are a selection whose mix differs from that of the whole data set. Some results for these compounds are left out of this collection, so the calls shown say nothing about other tests. Active and inactive are the calls of the source. Calls follow the shape of the dose curve; as a rule, active = well fitted activation curve with a large enough effect; inconclusive = small, poorly fitted or top-dose-only effect; inactive = no such curve, though single readings can be large or run the other way.

experiment: qHTS Assay for NPC1 Promoter Activators; conditions: Huh7 NPC1 promoter luciferase reporter, 24 h; at 9.22 µM (top of the series);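 also: reporter is driven by a mutant NPC1 promoter; % of control where 0% means no effect; nearly all actives have a fitted effect of over 60% in size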

Compound | activation
CN1[C@@H]2CC[C@H]1CC(OC(=O)C(O)(c1ccccc1)c1ccccc1)C2 (some centres undefined) | inactive: -3.16%
O=C(NCC1(N2CCCCC2)CCCCC1)c1cc([N+](=O)[O-])ccc1Cl | inactive: -1.37%
Cc1ccc(C(=O)NCC2(N3CCCCC3)CCCCC2)cc1 | inactive: -1.48%
COc1cc(SC)ccc1C(=O)NCC1(N(C)C)CCCCC1 | inactive: 2.76%
CCN(CC)CC(C)C(C)OC(=O)C(O)(c1ccccc1)c1ccccc1 (centres undefined) | inactive: -2.85%
CC(C)N1C(=O)CC2(CCN(CCOC(=O)C(O)(c3ccccc3)c3ccccc3)CC2)C1=O | inactive: -0.205%
CN(C)c1ccc(C(=O)NCC2(N(C)C)CCCCC2)cc1 | inactive: -3.88%
CN(C)C1CCCC1OC(=O)C(O)(c1ccccc1)c1ccccc1 (centres undefined) | inactive: 2.47%
Cc1ccccc1C(=O)NCC1(N2CCCCC2)CCCCC1 | inactive: -0.462%
COc1ccc(C(=O)NCC2(N(C)C)CCCCC2)cc1 | inactive: -1.52%
O=C(NCC1(N2CCCCC2)CCCCC1)c1cccc(Br)c1 | inactive: -0.351%
CCN1CCCC(OC(=O)C2(O)c3ccccc3C=Cc3ccccc32)C1 (centres undefined) | inactive: 0.0714%
Cc1cc(C(=O)NCC2(N3CCCCC3)CCCCC2)ccc1[N+](=O)[O-] | inactive: 0.518%
O=C(NCC1(N2CCCCC2)CCCCC1)c1cc(F)c(F)cc1Cl | inactive: -2.26%
C=CCN1CCN(CCOC(=O)C(O)(c2ccccc2)c2ccccc2)CC1 | inactive: 0.351%
COc1cc(C(=O)NCC2(N(C)C)CCCCC2)c([N+](=O)[O-])cc1OC | inactive: -2.78%
CN(C)C1(CNC(=O)c2ccc(Br)cc2)CCCCC1 | inactive: 2.48%
O=C(NCC1(N2CCCCC2)CCCCC1)c1cccc(Cl)c1 | inactive: -22.7%
COc1ccc(Cl)cc1C(=O)NCC1(N(C)C)CCCCC1 | inactive: 2.31%
COc1cccc(C(=O)NCC2(N3CCCCC3)CCCCC2)c1 | inactive: 3.36%
O=C(OC1CN2CCC1CC2)C(CO)(c1ccccc1)c1ccccc1 (centres undefined) | inactive: 1.23%
CC(C)Oc1ccc(C(=O)NCC2(N(C)C)CCCCC2)cc1 | inactive: 4.39%
CN(C)c1cccc(C(=O)NCC2(N(C)C)CCCCC2)c1 | inactive: -1.33%
COc1ccc(Br)c(C(=O)NCC2(N3CCCCC3)CCCCC2)c1 | inactive: 6.22%
